Test results reported in patent US20080045535A1, “Prokineticin 2 receptor antagonists” (priority 2005, published 2008).

By UniProt entry, the sequences of proteins in these tests, tags left out.
UniProt Q8TCW9, whole entry: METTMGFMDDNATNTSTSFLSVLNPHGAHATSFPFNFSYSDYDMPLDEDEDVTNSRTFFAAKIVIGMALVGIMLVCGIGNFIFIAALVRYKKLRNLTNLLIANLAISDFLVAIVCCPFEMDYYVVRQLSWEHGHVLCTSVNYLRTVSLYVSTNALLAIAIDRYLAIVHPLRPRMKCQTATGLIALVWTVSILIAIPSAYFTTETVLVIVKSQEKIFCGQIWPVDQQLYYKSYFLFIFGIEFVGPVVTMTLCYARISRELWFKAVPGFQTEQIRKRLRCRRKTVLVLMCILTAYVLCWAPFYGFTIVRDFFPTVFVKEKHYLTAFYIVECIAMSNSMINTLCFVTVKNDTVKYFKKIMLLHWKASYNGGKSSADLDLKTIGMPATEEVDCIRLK

Molecular target: HEK 293 GPR73 (prokineticin 1 receptor) expressing cells (Homo sapiens, UniProt Q8TCW9)
Test: PK1 functional assay: screening for PK1 antagonists on the FLIPR (calcium fluorescence)
Conditions: for Ca^2+ Mobilization % Inh @10 μM: compound at 10 μM, HEK 293 GPR73 cells, multiple values = repeat tests; for IC50: read-out: Ca^2+ Mobilization IC50, HEK 293 GPR73 cells, PK1 ligand at EC50, multiple values = repeat tests

Compound | Ca^2+ Mobilization % Inh @10 μM (10 µM) | Ca^2+ Mobilization % Inh @10 μM [%] | IC50
CNC(=N)NCCNc1nc(=O)n(Cc2ccc(Cl)c(Cl)c2)c(=O)n1Cc1ccc(OC)cc1 | 100% and 98% | – | –
CCCCCCn1c(NCCNC(=N)N)nc(=O)n(Cc2ccc(Cl)c(Cl)c2)c1=O | – | 60 | –
COc1ccc(Cn2c(NCCNC(=N)N)nc(=O)n(C(C)c3ccccc3)c2=O)cc1 (single isomer, unassigned) [25] | 94% | – | 0.137 µM
CCCOc1ccc(Cn2c(NCCNC(=N)N)nc(=O)n(Cc3ccc(Cl)c(Cl)c3)c2=O)cc1 | – | 89 | –
CCNC(=N)NCCNc1nc(=O)n(Cc2ccc(Cl)c(Cl)c2)c(=O)n1Cc1ccc(OC)cc1 | 99% and 101% | – | 0.014 µM and 0.025 µM
CC(C)Oc1ccc(Cn2c(NCCNC(=N)N)nc(=O)n(Cc3ccc(Cl)c(Cl)c3)c2=O)cc1 | 100% and 101% | – | 0.061 µM and 0.097 µM and 0.113 µM
COc1ccc(Cn2c(NCCNC(=N)N)nc(=O)n(C(C)c3ccccc3)c2=O)cc1 (single isomer, unassigned) [26] | 88% | – | 0.354 µM

Values joined by “and” are separate entries in the source; they are usually repeats but may differ in a detail not shown here. Identical values can stand only once.
